Drawing on patent publication US10604526B2, “Chemokine receptor modulators and uses thereof” (RAPT THERAPEUTICS, INC., priority 2016, dated 2020), this text covers IC50 for 1 compound.

Sequences of proteins named here, by UniProt entry; tags and fusion partners are left off.
UniProt P51679, whole entry: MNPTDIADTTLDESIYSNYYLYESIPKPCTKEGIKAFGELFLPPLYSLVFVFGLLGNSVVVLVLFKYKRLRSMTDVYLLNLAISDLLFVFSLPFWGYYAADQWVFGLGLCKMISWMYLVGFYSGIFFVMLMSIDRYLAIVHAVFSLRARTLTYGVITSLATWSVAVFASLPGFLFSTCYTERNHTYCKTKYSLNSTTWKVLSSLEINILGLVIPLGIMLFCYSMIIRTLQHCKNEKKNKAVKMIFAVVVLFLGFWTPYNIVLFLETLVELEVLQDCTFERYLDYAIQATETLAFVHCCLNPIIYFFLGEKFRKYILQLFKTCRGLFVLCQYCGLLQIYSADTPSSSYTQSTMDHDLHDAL

In the experiment the target is hCCR4 (Homo sapiens, UniProt P51679). The experiment in a line: Calcium flux assay. The settings on record: read-out: Potency (IC50); Chem5-hCCR4 cells, CCL22 at EC80 of 1.5 nM, FLIPR Calcium 6 dye. How it is done: Calcium Flux Assay. Compounds were evaluated in a calcium flux assay substantially performed as follows. Chem5-hCCR4 cells (EMD Millipore, Hayward, Calif.; HTS009C) were cultured under standard conditions and frozen in aliquots of 10×10^6 cells/mL. The day prior to compound testing, a vial was rapidly thawed and pipetted into 20 mL media (DMEM+10% FBS+1% Pen-Strep+1% L-glutamine). Cells were harvested by centrifugation and re-suspended in fresh culture medium. 25 μL of cell suspension was seeded into 384-well plates (Corning, Tewksbury, Mass.; CellBind with black wall/clear bottom). The plates were centrifuged at 300 g for 10 seconds and incubated overnight at 37° C. and 5% CO2. The day of compound testing, media was removed from the plates and 25 μL serum free media was added to each well. […]
Assay plates and working solution of CCL22 were transferred to the FlexStation plate reader (Molecular Devices) at 37° C. for 5 min of equilibration. Fluorescence recordings at 485 excitation/525 emission were performed at 2.5 second intervals. At t=16 seconds, 12.5 μL of CCL22 solution was added to each well and reads continued for 30 seconds at 2.5 second intervals. The minimum fluorescence (Fmin) was calculated by averaging the reads prior to ligand addition and the change in fluorescence (ΔF) was calculated by subtracting the Fmin from the average of the reads following ligand addition. […]

Broadly, the IC50 is the concentration needed to halve the response being measured.

Take `Cc1nn([C@H](C)c2ccc(Cl)cc2Cl)c2nc(N3CC([C@@H]4CCCN(CCCC(=O)O)C4)C3)ncc12`: the IC50 was more than 500 nM.
